# scFv variants of Ab-14 (light chain) against a SARS-CoV-2 spike peptide

Target peptide (SARS-CoV-2 spike, HR2 region): PDVDLGDISGINAS

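The variants were designed computationally from a first round of random CDR variants and then made and measured. Their group label is 14L_En_Gen (En: ensemble of fine-tuned language models; Gen: genetic algorithm). AlphaSeq pools MATa yeast showing the antibodies with MATalpha yeast showing the peptide. Binding brings cells together so that they mate, and sequencing counts the barcode pairs among the diploids. Scores were corrected for input abundance and mapped to Kd with protein pairs of known affinity run in the same pool. Mating was done six times.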

Parent: Ab-14, a human scFv built as VH, a 15-residue (Gly4Ser)3 linker, VL. Only the CDRs of the light chain vary.
VH: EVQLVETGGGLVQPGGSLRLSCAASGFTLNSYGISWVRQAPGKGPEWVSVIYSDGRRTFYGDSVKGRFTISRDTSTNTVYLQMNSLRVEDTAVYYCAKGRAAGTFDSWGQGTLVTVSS
VL: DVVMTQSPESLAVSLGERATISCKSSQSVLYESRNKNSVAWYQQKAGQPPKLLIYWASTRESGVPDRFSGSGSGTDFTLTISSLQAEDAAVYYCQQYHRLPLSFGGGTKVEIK

Variants are written as CDR1, CDR2 and CDR3 of the light chain (limits as in the source). Parent: KSSQSVLYESRNKNSVA, WASTRES, QQYHRLPLS. Scale: log10 of Kd in nM, estimated from mating counts; low values are strong binders. The mean shown is taken over the replicates in which the pair was detected. An entry "n.d." has no value in the source: the pair was not observed among the diploids in that replicate. This suggests poor binding but is not conclusive. Nonspecific signal, from three strains lacking the peptide, appeared in 4% of pairings of all light chain designs, centred on 2.64 (5% of these signals below 1.59); values are not corrected for it. Also given: how often the same scFv was detected with the empty control strains, with their mean in brackets. A sequence measured in both rounds can read differently, since the two assays cover different ranges. The authors' rule: three or more of the six replicates give a measured affinity, fewer mean a poor binder.

{"CDR-L1": "HMSMLTLQGMYHRNSVA", "CDR-L2": "QMTTREN", "CDR-L3": "QQYDHLPLS", "log10 Kd (nM) by replicate": "1.63 2.20 0.70 1.74 1.04 1.77", "log10 Kd (nM), mean": "1.51", "empty controls": "0 of 18"}
{"CDR-L1": "MISQVMNTLTREGNNVA", "CDR-L2": "DLAEREK", "CDR-L3": "QQYFRLPLS", "log10 Kd (nM) by replicate": "1.52 0.85 0.38 0.51 0.79 0.08", "log10 Kd (nM), mean": "0.69", "empty controls": "0 of 18"}
{"CDR-L1": "HMSALTLQGMTHRNSVA", "CDR-L2": "QMTTREN", "CDR-L3": "QQYDRLPLA", "log10 Kd (nM) by replicate": "1.75 1.54 n.d. 1.59 1.34 2.69", "log10 Kd (nM), mean": "1.78", "empty controls": "0 of 18"}
{"CDR-L1": "HITYGMYVSGRYKSNIA", "CDR-L2": "QAETREK", "CDR-L3": "QQYDRLPLM", "log10 Kd (nM) by replicate": "0.62 0.68 0.80 0.85 0.50 1.01", "log10 Kd (nM), mean": "0.74", "empty controls": "1 of 18 (2.62)"}
{"CDR-L1": "TISQMTSLFSQTINNVA", "CDR-L2": "EVSTREA", "CDR-L3": "QQYDRLPLT", "log10 Kd (nM) by replicate": "0.82 0.50 0.59 0.46 0.96 0.71", "log10 Kd (nM), mean": "0.67", "empty controls": "1 of 18 (2.63)"}
{"CDR-L1": "MISQLYNMGQFAINSVA", "CDR-L2": "QASERNE", "CDR-L3": "QQYDRLPLT", "log10 Kd (nM) by replicate": "n.d. n.d. n.d. n.d. n.d. n.d.", "log10 Kd (nM), mean": "n.d.", "empty controls": "0 of 18"}
{"CDR-L1": "KISGMSNHQSSIHNNVA", "CDR-L2": "ENVTRVQ", "CDR-L3": "QQYFRLPLS", "log10 Kd (nM) by replicate": "0.53 0.59 0.36 0.25 0.45 0.48", "log10 Kd (nM), mean": "0.44", "empty controls": "1 of 18 (2.81)"}
{"CDR-L1": "IVSQLMLWGYKAKNSIA", "CDR-L2": "EAQTRVN", "CDR-L3": "QQYDRLPLF", "log10 Kd (nM) by replicate": "2.88 1.16 n.d. 2.06 2.01 2.31", "log10 Kd (nM), mean": "2.08", "empty controls": "1 of 18 (1.19)"}
{"CDR-L1": "KVSEFMRGLMQKTDSIA", "CDR-L2": "DNTTRNN", "CDR-L3": "QQYDRLPLS", "log10 Kd (nM) by replicate": "0.24 0.36 0.10 -0.09 0.49 -0.26", "log10 Kd (nM), mean": "0.14", "empty controls": "0 of 18"}
{"CDR-L1": "KITATMRFEQKASNNIA", "CDR-L2": "EVTNRSK", "CDR-L3": "QQYYRLPLS", "log10 Kd (nM) by replicate": "0.78 1.06 1.04 0.99 1.34 0.73", "log10 Kd (nM), mean": "0.99", "empty controls": "2 of 18 (3.02)"}
{"CDR-L1": "IVSQLMMWGMVAKNSIA", "CDR-L2": "EAVTRLN", "CDR-L3": "QQYDRLPLI", "log10 Kd (nM) by replicate": "n.d. n.d. n.d. n.d. n.d. n.d.", "log10 Kd (nM), mean": "n.d.", "empty controls": "0 of 18"}
{"CDR-L1": "MISQLMNMGQFAINSVA", "CDR-L2": "QASERCN", "CDR-L3": "QQYDRLPLM", "log10 Kd (nM) by replicate": "1.26 1.48 2.41 1.77 1.55 1.67", "log10 Kd (nM), mean": "1.69", "empty controls": "1 of 18 (1.82)"}
{"CDR-L1": "KISSMSNHQSSVANNVA", "CDR-L2": "ENVTREE", "CDR-L3": "QQYFRLPLA", "log10 Kd (nM) by replicate": "2.51 2.09 n.d. 1.62 2.20 n.d.", "log10 Kd (nM), mean": "2.11", "empty controls": "0 of 18"}
{"CDR-L1": "HISMITLQGMRQRNSVA", "CDR-L2": "QMTTREN", "CDR-L3": "QQYDRLPLS", "log10 Kd (nM) by replicate": "2.42 1.88 1.37 3.18 3.59 2.08", "log10 Kd (nM), mean": "2.42", "empty controls": "0 of 18"}
{"CDR-L1": "KITTTMRFEQKNTNNIA", "CDR-L2": "EVSTRSK", "CDR-L3": "QQYVRLPLA", "log10 Kd (nM) by replicate": "0.15 -0.19 -0.21 -0.07 -0.31 -0.12", "log10 Kd (nM), mean": "-0.12", "empty controls": "1 of 18 (2.35)"}
{"CDR-L1": "MISQLYNMGQFAINSVA", "CDR-L2": "QAETRNA", "CDR-L3": "QQYDRLPLT", "log10 Kd (nM) by replicate": "0.96 1.13 0.52 0.42 0.63 1.57", "log10 Kd (nM), mean": "0.87", "empty controls": "0 of 18"}
{"CDR-L1": "QIGMLLNFELQKINNVA", "CDR-L2": "QMETRVN", "CDR-L3": "QQYDRLPLS", "log10 Kd (nM) by replicate": "1.70 n.d. 0.85 1.52 1.94 1.34", "log10 Kd (nM), mean": "1.47", "empty controls": "0 of 18"}
{"CDR-L1": "KVSEFMRGLMKMKDSIA", "CDR-L2": "DNNTRGA", "CDR-L3": "QQYDRLPLS", "log10 Kd (nM) by replicate": "1.78 1.54 1.31 1.27 1.71 1.35", "log10 Kd (nM), mean": "1.49", "empty controls": "1 of 18 (2.53)"}
{"CDR-L1": "HMSAVTMMGMRQRNSVA", "CDR-L2": "QMTMREN", "CDR-L3": "QQYDRLPLM", "log10 Kd (nM) by replicate": "0.68 0.86 0.68 0.55 0.32 0.69", "log10 Kd (nM), mean": "0.63", "empty controls": "0 of 18"}
{"CDR-L1": "IVSQLMLWGKSAKNSIA", "CDR-L2": "EAVTRFN", "CDR-L3": "QQYDRLPLF", "log10 Kd (nM) by replicate": "n.d. 2.76 n.d. 1.76 n.d. 2.19", "log10 Kd (nM), mean": "2.24", "empty controls": "2 of 18 (1.96)"}
{"CDR-L1": "KVSEFRRGLMSKQDSIA", "CDR-L2": "DNVTRAN", "CDR-L3": "QQYDRLPLS", "log10 Kd (nM) by replicate": "n.d. n.d. n.d. 1.51 n.d. 3.08", "log10 Kd (nM), mean": "2.29", "empty controls": "0 of 18"}
{"CDR-L1": "MLGDVTQGLSRKHNSVA", "CDR-L2": "DNSTREA", "CDR-L3": "QQYDRLPLS", "log10 Kd (nM) by replicate": "2.00 2.75 1.76 2.19 3.33 2.69", "log10 Kd (nM), mean": "2.45", "empty controls": "1 of 18 (3.42)"}
{"CDR-L1": "TISQLYNMGQFAINSVA", "CDR-L2": "QASQRNE", "CDR-L3": "QQYDRLPLM", "log10 Kd (nM) by replicate": "0.92 0.79 0.92 0.63 0.76 0.82", "log10 Kd (nM), mean": "0.81", "empty controls": "1 of 18 (3.40)"}
{"CDR-L1": "TITMFMDNLSHNRNNVA", "CDR-L2": "DTSTLGS", "CDR-L3": "QSYDRLPLS", "log10 Kd (nM) by replicate": "1.73 1.03 0.62 1.73 1.52 1.40", "log10 Kd (nM), mean": "1.34", "empty controls": "0 of 18"}

From the list, the first 2 with no signal in any replicate:

| CDR-L1 | CDR-L2 | CDR-L3 | log10 Kd (nM) by replicate | log10 Kd (nM), mean | empty controls |
|---|---|---|---|---|---|
| MISQLYNMGQFAINSVA | QASERNE | QQYDRLPLT | n.d. n.d. n.d. n.d. n.d. n.d. | n.d. | 0 of 18 |
| IVSQLMMWGMVAKNSIA | EAVTRLN | QQYDRLPLI | n.d. n.d. n.d. n.d. n.d. n.d. | n.d. | 0 of 18 |

From the AlphaSeq antibody data of Li et al. 2023 (doi:10.1038/s41467-023-39022-2), copy in the FLAb collection.